This is an account of results in patent US4447608A (dated 1984).

The test concerns L1210 tumour. As to the kind of experiment: Treatment of L1210 ascitic tumour-bearing mice, survival. The following applies: single doses up to 160 mg/Kg i.p.

As for `C#CCN(Cc1ccc2nc(N)nc(O)c2c1)c1ccc(C(=O)N[C@@H](CCC(=O)O)C(=O)O)cc1` [CB 3717, N-(4-(N-((2-amino-4-hydroxy-6-quinazolinyl)methyl)prop-2-ynylamino)benzoyl)-L-glutamic acid], the “therapeutic effect of single doses” value was “very little therapeutic effect”.
